Source: US20240408094A1, “INHIBITION OF USP7 INDUCES P53-INDEPENDENT TUMOR GROWTH SUPPRESSION IN TRIPLE-NEGATIVE BREAST CANCERS BY DESTABILIZING FOXM1” (The Trustees of Columbia University in the City of New York, priority 2023, published 2024)

Key:
FOXM1 [1] = assay: FOXM1 protein half-life (cycloheximide chase) in CAL33 cells; assay type: cell-based, human; conditions: CAL33, 10 μM 48 h then cycloheximide; without treatment more than 6 hours
Description: (§1) FIGS. 4F and 4G show CAL33 cells treated with or without 10 μM of PU7-1 for 96 h. Total RNA was extracted and subjected to RNAseq analysis. Differentially expressed genes were further analyzed. Heatmap in FIG. 4G represents the downregulation of known FOXM1 target genes.

[2] = system: FOXM1 downstream target genes; assay: RNAseq and quantitative real-time PCR of FOXM1 target genes in CAL33; assay type: cell-based, human; conditions: CAL33, 10 μM, 96 h
Description: as §1
(§2) Transcription factor FOXM1 is a master regulator of the cell cycle. It tightly controls the cell cycle progression and maintains sustained cell proliferation via its various downstream target genes crucial for cell cycle regulation 16. To explore the functional consequences of PU7-1-mediated FOXM1 degradation, a transcriptome analysis was performed. CAL33 cells were treated with or without 10 μM of PU7-1 for 96 h and total RNA were extracted for RNAseq analysis. We identified ˜5000 differentially expressed genes (DEGs) in DMSO-treated versus PU7-1-treated cells (FIG. 22). […] This effect was further validated in CAL33 cells by quantitative real-time PCR (FIG. 4H).

FOXM1 [3] = assay: FOXM1 protein levels by Western blot in TNBC cell lines; assay type: cell-based, human; conditions: MDA-MB-468, MDA-MB-231 and BT549, 10 μM, 96 h
Description: FIGS. 5B and 5C show representative images (FIG. 5B) and normalized absorbance at 600 nm (FIG. 5C) of colony-formation assays in MDA-MB468 and BT549 treated with or without 10 μM of PU7-1 for 2 weeks. […] FIGS. 5F and 5G show representative images of MDA-MB-468 tumors (FIG. 5F) and quantification of tumor weight (G) in nude mice xenograft model. **p<0.01.
Given the high expression of FOXM1 in triple-negative breast cancer, the effects of the USP7 degrader PU7-1 were next investigated in TNBC cells. First, three TNBC cell lines MDA-MB-468, MDA-MB-231 and BT549 were treated with 10 μM of PU7-1 for 96 h. The protein levels of FOXM1 were determined by Western blot. […] Next, the effects of PU7-1 were examined on TNBC cell proliferation. MDA-MB468 and BT549 were incubated in the complete growth medium with or without 10 μM of PU7-1 for two weeks. […] Furthermore, the dye bound to the cells was solubilized with 30% acetic acid and measured by the absorbance at 600 nm. […] The IC50 of PU7-1 in TNBC cells were then determined using a luminescent cell viability assay. […]
Cells were lysed in FLAG lysis buffer (50 mM Tris-HCl (pH 7.3), 137 mM NaCl, 10 mM NaF, 0.5 mM EDTA, 1% Triton X-100, 0.2% Sarkosyl, 10% glycerol) freshly supplemented with protease inhibitor cocktail. Protein concentration was determined by the Bio-Rad protein assay. […]

CAL33 cells = assay: BrdU incorporation in CAL33 cells; assay type: cell-based, human; conditions: CAL33, 10 μM, 72 h
Description: FIGS. 12A and 12B show representative images of BrdU staining (FIG. 12A) and quantification of BrdU positive (BrdU+) cells (FIG. 12B) in CAL33 cells treated with or without 10 μM of PU7-1 for 72 h. ****p<0.0001. FIGS. 12C and 12D show representative images (FIG. 12C) and normalized absorbance at 600 nm (FIG. 12D) of colony-formation assays in BT474, CAL33, DU145, SK-NDZ treated with or without 10 μM of PU7-1 for 2 weeks.
as §2
Cells were incubated with 10 μg/ml BrdU (BD, 51-2420KC) for 3 h and fixed with cold 70% ethanol. DNA was denatured in 1.5N HCL for 30 min. Cells were blocked with 1% BSA in PBS, and incubated with anti-BrdU antibody (Roche, clone #BMC9318) at 4° C. overnight. […]

MDA-MB-468 = conditions: 10 µM
Description: (§3) Given the high expression of FOXM1 in triple-negative breast cancer, the effects of the USP7 degrader PU7-1 were next investigated in TNBC cells. First, three TNBC cell lines MDA-MB-468, MDA-MB-231 and BT549 were treated with 10 μM of PU7-1 for 96 h. The protein levels of FOXM1 were determined by Western blot. […] Next, the effects of PU7-1 were examined on TNBC cell proliferation. MDA-MB468 and BT549 were incubated in the complete growth medium with or without 10 μM of PU7-1 for two weeks. Colonies were stained by crystal violet dye that stains nucleic acids and proteins and is used to reflect the cell number. […] Furthermore, the dye bound to the cells was solubilized with 30% acetic acid and measured by the absorbance at 600 nm. The viability of PU7-1-treated cells is about 20% of the control cells in MDA-MB-468 or 30% of the control cells in BT549 (FIG. 5C). […] The IC50 of PU7-1 in TNBC cells were then determined using a luminescent cell viability assay. […] Lastly, the xenograft mouse model was utilized to investigate the in vivo efficacy of PU7-1 in TNBC. […]
(§4) 1000 cells (10000 cells for BT474) were seeded in 12-well plates. […] For quantification purpose, 1 ml of 30% acetic acid was added to de-stain for 15 min with gentle rotation. The absorbance at 600 nm was measured by using a plate reader in triplicates.

BT549 = conditions: 10 µM
Description: as §3, §4

In the case of `O=C1CCC(N2Cc3c(CCCCCN4CCN(CCC(=O)Nc5ccc6c(=O)n(CC7(O)CCN(C(=O)C(CCCNC(=O)c8ccc9c(Cl)c%10c(nc9c8)CCCC%10)Cc8ccccc8)CC7)cnc6c5)CC4)cccc3C2=O)C(=O)N1` (stereo not drawn), the “FOXM1 half-life upon treatment” value (FOXM1 [1]) was 3 h, the “FOXM1 downstream target genes expression” value [2] was “significantly downregulated” and the “FOXM1 protein levels in TNBC cells” value (FOXM1 [3]) was “dramatically decreased”. For the same compound, the “percentage of BrdU incorporation” value (CAL33 cells) was “significantly lower percentage”, the viability (MDA-MB-468) was 20% and the viability (BT549) was 30%.
